Values quoted from earlier work in US20260041695A1, “COMBINATION THERAPIES FOR TREATMENT OF BREAST CANCER” (Genentech, Inc., priority 2019, published 2026).

Protein sequences, listed by entry. Tags and fused reporters are not part of them.
UniProt P03372, whole entry: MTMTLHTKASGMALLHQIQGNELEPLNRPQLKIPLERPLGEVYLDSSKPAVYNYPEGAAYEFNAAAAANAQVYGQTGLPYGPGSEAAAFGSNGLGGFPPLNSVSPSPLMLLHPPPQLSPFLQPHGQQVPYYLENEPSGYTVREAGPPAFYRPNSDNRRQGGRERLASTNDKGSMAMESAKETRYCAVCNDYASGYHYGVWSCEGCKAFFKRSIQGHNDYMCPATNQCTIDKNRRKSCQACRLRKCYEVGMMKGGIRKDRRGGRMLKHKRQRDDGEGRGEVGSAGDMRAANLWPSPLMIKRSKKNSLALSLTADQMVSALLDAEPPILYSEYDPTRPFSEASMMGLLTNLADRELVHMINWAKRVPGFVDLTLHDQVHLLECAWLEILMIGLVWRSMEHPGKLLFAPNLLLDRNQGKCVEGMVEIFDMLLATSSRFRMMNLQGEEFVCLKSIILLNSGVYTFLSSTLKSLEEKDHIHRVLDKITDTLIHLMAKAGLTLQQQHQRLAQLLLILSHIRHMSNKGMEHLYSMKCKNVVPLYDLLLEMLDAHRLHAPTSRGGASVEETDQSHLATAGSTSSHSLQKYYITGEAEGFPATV

Molecular target: ER (Homo sapiens, UniProt P03372)
Conditions: greater than tamoxifen; cited from earlier work

For `C[C@]12CC[C@@H]3c4ccc(O)cc4C[C@@H](CCCCCCCCC[S+]([O-])CCCC(F)(F)C(F)(F)F)[C@H]3[C@@H]1CC[C@@H]2O` (stereo partly drawn) [fulvestrant, (7α,17β)-7-{9-[(4,4,5,5,5-pentafluoropentyl)sulfinyl]nonyl}estra-1,3,5(10)-triene-3,17-diol], the “affinity for the ER relative to tamoxifen” value is listed as “approximately 100 fold”.
